The record followed here is ChEMBL document CHEMBL1133734, “Synthesis and evaluation of nitroheterocyclic phosphoramidates as hypoxia-selective alkylating agents” (2000).

The test is described as follows: Ratio of lethal conc. under aerobic to hypoxic condition in HT-29 cells. The format is functional. The gist of the method: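 HT-29 hypoxic selectivity. Aerobic and hypoxic LC99 values (concentration cutting clonogenic survival by 2 log units) come from the log-linear portion of each survival curve after 4-h drug treatment, assayed in duplicate. The ratio is aerobic LC99 over hypoxic LC99.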

Turning to `NP(=O)(OCc1ccc([N+](=O)[O-])o1)N(CCBr)CCBr` (configuration not stated), the Ratio amounted to 8.2. For `NP(=O)(OCc1ccc([N+](=O)[O-])s1)N(CCBr)CCBr` (configuration not stated), the Ratio was 7.8.
